Sequences of proteins named here, by UniProt entry; tags and fusion partners are left off. A change or cut given only in a name is not applied to a line headed by its entry.
UniProt Q9Y5N1: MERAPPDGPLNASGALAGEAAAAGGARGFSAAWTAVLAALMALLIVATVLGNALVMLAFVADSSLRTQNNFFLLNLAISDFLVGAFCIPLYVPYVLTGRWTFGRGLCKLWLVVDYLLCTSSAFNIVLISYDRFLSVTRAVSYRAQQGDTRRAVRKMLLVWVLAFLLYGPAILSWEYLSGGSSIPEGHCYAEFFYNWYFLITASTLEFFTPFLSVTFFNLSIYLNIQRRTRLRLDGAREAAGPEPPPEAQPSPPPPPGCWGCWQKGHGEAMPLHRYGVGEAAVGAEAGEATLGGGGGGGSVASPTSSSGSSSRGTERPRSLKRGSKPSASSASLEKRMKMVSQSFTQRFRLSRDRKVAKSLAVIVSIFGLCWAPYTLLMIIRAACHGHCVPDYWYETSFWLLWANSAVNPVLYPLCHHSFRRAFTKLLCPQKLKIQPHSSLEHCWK

In ChEMBL document CHEMBL1154085, “Diamine-based human histamine H3 receptor antagonists: (4-aminobutyn-1-yl)benzylamines” (Eur J Med Chem, 2009):

Biological target: Histamine H3 receptor (Homo sapiens, UniProt Q9Y5N1)
Assay: Displacement of [3H]N-alpha-methylhistamine from human histamine H3 receptor expressed in SK-N-MC cells
Type: cell-based
Procedure, shortened: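 Membranes prepared from SK-N-MC cells expressing human H3 receptor, homogenized in 50 mM Tris/5 mM EDTA, pH 7.4. Incubated with 0.8 nM [3H]-N-alpha-methylhistamine ± compound, 60 min, 25 °C. Filtration over polyethylenimine-treated glass fiber filters with four ice-cold washes. Nonspecific binding defined with 10 µM histamine.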

Ki: 56.2 nM
SMILES: C(#Cc1ccccc1)CCN1CCCCC1
